# From patent US20140100216A1, “STIMULATORS OF INCRETIN HORMONES SECRETION, METHOD FOR PREPARATION AND USE THEREOF” (priority 2011, published 2014)
# Test system: DIO-mice C57BL/6J
# Details: Sitagliptin 30 mg/kg peroral 25 min before sugar, with TGR5 receptors agonist and glucose
smiles,measurement,value
"N[C@@H](CC(=O)N1CCn2c(nnc2C(F)(F)F)C1)Cc1cc(F)c(F)cc1F [Sitagliptin, reference compound]",GLP-1 concentration in plasma (stability of GLP-1),maintains high GLP-1 concentration in plasma
